Activity change, negative = inhibition data for 87 compounds are collected here from PubChem BioAssay AID588795 (National Center for Advancing Translational Sciences (NCATS), 2011).

Protein sequences, listed by entry. Tags and fused reporters are not part of them.
UniProt P39748, whole entry: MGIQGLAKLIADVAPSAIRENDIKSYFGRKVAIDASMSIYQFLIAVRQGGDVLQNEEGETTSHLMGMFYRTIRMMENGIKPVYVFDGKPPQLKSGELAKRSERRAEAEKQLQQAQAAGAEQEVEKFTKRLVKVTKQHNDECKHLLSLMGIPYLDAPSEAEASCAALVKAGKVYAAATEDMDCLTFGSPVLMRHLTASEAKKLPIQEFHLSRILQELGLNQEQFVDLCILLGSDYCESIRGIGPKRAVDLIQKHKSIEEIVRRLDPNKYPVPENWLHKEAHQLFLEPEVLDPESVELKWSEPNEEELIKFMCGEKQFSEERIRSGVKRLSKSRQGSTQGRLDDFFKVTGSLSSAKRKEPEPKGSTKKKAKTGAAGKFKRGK

The list shows a part of the results, in another mix than the full data. Some structures show a salt or complex split into parts, the way the source records it. Active and inactive are the calls of the source. Calls come from the whole dose curve; as a rule, active = well fitted inhibition curve with a large enough effect; inconclusive = small, poorly fitted or top-dose-only effect; inactive = no such curve, though single readings can be large or run the other way.
% is set by controls: 0 for no effect and ±100 for the full control effect.

This test addresses Flap endonuclease 1 (Homo sapiens) (UniProt P39748). The experiment in a line: qHTS Assay for the Inhibitors of Human Flap endonuclease 1 (FEN1). Note: nearly all actives have a fitted effect of over 65% in size. The conditions noted are these: Recombinant FEN1 flap cleavage, fluorescence, 15 min; at 114 µM (top of the series). In general terms: qHTS replaces the single test concentration by a dilution series.
For `O=C(NCC1(N2CCOCC2)CCCCC1)c1ccc([N+](=O)[O-])cc1`, the activity change, negative = inhibition was inactive: -6.46%.
As for `CC(C)(C)OC(=O)N1CCC(N(C(=O)c2ccccc2)c2ccc(Cl)cc2)CC1`, the figure is inactive: -3.08%.
With `N#Cc1ccc(C(=O)NCC2(N3CCCCC3)CCCCC2)cc1`, the activity change, negative = inhibition was inactive: 0.524%.
Next, `O=C(NCC1(N2CCOCC2)CCCCC1)c1ccccc1[N+](=O)[O-]`: inactive: 2.39%.
With `CCOC(=O)C(CC)C1=NC(C)(C)Cc2ccccc21.O=[N+]([O-])c1cc([N+](=O)[O-])c(O)c([N+](=O)[O-])c1` (configuration not stated), the activity change, negative = inhibition is inactive: -13.7%.
Next, `c1ccc(CN2CCC(Nc3ccccc3)CC2)cc1`: inactive: 7.05%; `Cc1cc(N(CCCl)CCCl)ccc1C=O`: inactive: -2.9%; `O=C(NCC1(N2CCOCC2)CCCCC1)c1ccccc1`: inactive: 22.2%.
Take `CCCN1CCC(Nc2cc(OC)cc(OC)c2)CC1`: the activity change, negative = inhibition is inactive: -12.6%.
For the compound `CN(C)C1(CNC(=O)c2cccc(C#N)c2)CCCCC1`, the activity change, negative = inhibition was inactive: -2.07%.
Next, `O=C(NCC1(N2CCOCC2)CCCCC1)c1cc(Br)ccc1Cl`: inactive: -5.8%.
As for `COc1cc(C(=O)NCC2(N3CCOCC3)CCCCC2)cc(OC)c1C`, the figure is inactive: -7.7%.
For the compound `COc1ccc(C(=O)NCC2(N3CCOCC3)CCCCC2)cc1OC`, the activity change, negative = inhibition is inactive: 15.4%.
Turning to `O=Cc1ccc(N(CCCl)CCCl)cc1`, the activity change, negative = inhibition is inactive: -24.6%.
Turning to `N/C(=N\O)c1c(N)no[n+]1[O-]`, the activity change, negative = inhibition is inactive: -5.46%.
Consider `CCOC(=O)N1CCC(Nc2ccc(C)cc2)CC1`, for which the activity change, negative = inhibition was inactive: 0.487%.
Next, `CCc1cc(C(=O)NCC2(N3CCCCC3)CCCCC2)sc1C`: inactive: 0.756%; `O=C(O)c1cccc(Nc2c([N+](=O)[O-])cc([N+](=O)[O-])cc2[N+](=O)[O-])c1`: inactive: -27.8%.
Turning to `CCOc1ncccc1C(=O)NCC1(N2CCOCC2)CCCCC1`, the activity change, negative = inhibition was inactive: -3.42%.
For `CN1CCC(Nc2ccc(F)c(Cl)c2)CC1`, the activity change, negative = inhibition was inactive: 0.504%.
As for `ClCCN(CCCl)c1ccccc1`, the figure is inactive: -2.89%; as for `CCCOc1ccc(C(=O)NCC2(N(C)C)CCCCC2)cc1`, inactive: 18.6%; as for `CC(C)(C)OC(=O)N1CCC(Nc2ccccc2)CC1`, inactive: 4.1%.
For the compound `O=C(O)C1(Nc2ccccc2)CCN(Cc2ccccc2)CC1`, the activity change, negative = inhibition is inactive: 1.09%.
Next, `ClCCN(CCCl)c1ccc(C=C2C=CC=C2)cc1`: inactive: -1.98%.
Regarding `CCC(CO)(C(=O)OC1CN2CCC1CC2)c1ccccc1` (configuration not stated), the activity change, negative = inhibition was inactive: -4.84%.
As for `COc1cc(OC)cc(C(=O)NCC2(N3CCOCC3)CCCCC2)c1`, the figure is inactive: 1.26%.
For `COc1cc(C(=O)NCC2(N3CCOCC3)CCCCC2)cc(OC)c1OC`, the activity change, negative = inhibition is inactive: -2.46%.
Turning to `COc1cccc(C(=O)N(c2cc(C)cc(C)c2)C2CCN(C(=O)OC(C)(C)C)CC2)c1`, the activity change, negative = inhibition is inactive: -22.1%.
Take `CN1CCC(Nc2ccc(Cl)cc2)CC1`: the activity change, negative = inhibition was inactive: 0.728%.
Next, `CN(C)C1(CNC(=O)c2ccc(C(C)(C)C)cc2)CCCCC1`: inactive: 17.3%.
Next, `CC(=O)N(c1ccccc1)C1CCNCC1`: inactive: -13.9%.
Next, `Cc1ccc(NC2(C#N)CCN(Cc3ccccc3)CC2)cc1`: inactive: -9.15%; `Cc1ccc(C(=O)NCC2(N3CCCCC3)CCCCC2)o1`: inactive: 6.61%; `Fc1ccccc1NC1CCN(Cc2ccccc2)CC1`: inactive: 2.81%.
As for `Cc1ccccc1NC1(C#N)CCN(Cc2ccccc2)CC1`, the activity change, negative = inhibition is inactive: 6.95%.
As for `CCN1CCC(Nc2cccc(F)c2)CC1`, the activity change, negative = inhibition was inactive: 7.72%.
As for `O=C(NCC1(N2CCCCC2)CCCCC1)c1ccco1`, the figure is inactive: 0.779%; as for `CC(C)(C)c1ccc(C(=O)NCC2(N3CCOCC3)CCCCC2)cc1`, inactive: -11.2%; as for `CN(C)c1ccc(C(=O)NCC2(N3CCCCC3)CCCCC2)cc1`, inactive: -2.55%.
Next, `Cn1c(=O)[nH]cc(N(CCCl)CCCl)c1=O`: inactive: 3.42%; `Cc1ccccc1C(=O)NCC1(N(C)C)CCCCC1`: inactive: -1.66%; `CCOc1ccc(C)cc1CN(CCCl)CCCl`: inactive: 2.06%.
Next, `O=C(NCC1(N2CCOCC2)CCCCC1)c1ccc(Cl)cc1`: inactive: 13.9%.
For the compound `O=C1CCN(Cc2ccccc2)CC1`, the activity change, negative = inhibition was inactive: 18.3%.
As for `O=P1(N(CCCl)CCCl)SCCCS1`, the figure is inactive: -4.24%.
As for `CCCCOc1ccc(C(=O)NCC2(N3CCOCC3)CCCCC2)cc1`, the figure is inactive: -7.29%.
Next, `COc1ccc(NC2CCN(CCc3ccccc3)CC2)c(OC)c1`: inactive: -5.5%; `CCOC(=O)N1CCC(Nc2ccc(F)cc2)CC1`: inactive: 2.15%.
Regarding `COc1ccccc1C(=O)NCC1(N2CCOCC2)CCCCC1`, the activity change, negative = inhibition was inactive: 13%.
As for `CCOC(=O)N1CCC(Nc2cccc(C)c2)CC1`, the figure is inactive: -8.18%.
As for `COc1cc(C(=O)NCC2(N(C)C)CCCCC2)ccc1OC(F)F`, the activity change, negative = inhibition is inactive: 17.4%.
Next, `O=C(NCC1(N2CCCCC2)CCCCC1)c1cccs1`: inactive: -0.107%; `COc1ccc(C(=O)NCC2(N3CCCCC3)CCCCC2)cc1`: inactive: 1.15%.
In the case of `CC(C)(C)OC(=O)N1CCC(N(C(=O)c2ccccc2)c2ccc(F)cc2)CC1`, the activity change, negative = inhibition is inactive: 0.816%.
Regarding `CSc1ccccc1C(=O)NCC1(N2CCCCC2)CCCCC1`, the activity change, negative = inhibition was inactive: -16.3%.
As for `O=C(NCC1(N2CCOCC2)CCCCC1)c1cc2ccccc2o1`, the figure is inactive: 2.1%; as for `O=C(NCC1(N2CCCCC2)CCCCC1)c1ccc(Cl)nc1`, inactive: -2.24%.
As for `CCOC(=O)N1CCC(Nc2ccc(OC)cc2)CC1`, the figure is inactive: -3.46%; as for `N#CC1(Nc2ccccc2)CCN(Cc2ccccc2)CC1`, inactive: 19.4%.
As to `O=C(NCC1(N2CCCCC2)CCCCC1)c1ccc(Cl)s1`, the activity change, negative = inhibition was inactive: 3.32%.
Turning to `O=C(OC1CN2CCC1CC2)C1c2ccccc2Oc2ccccc21` (configuration not stated), the activity change, negative = inhibition was inactive: 7.68%.
In the case of `COc1ccc(Cl)cc1C(=O)NCC1(N2CCOCC2)CCCCC1`, the activity change, negative = inhibition was inactive: -6.9%.
Next, `COc1ccc(CN(CCCl)CCCl)cc1Cl`: inactive: 17.2%; `O=[N+]([O-])c1cc([N+](=O)[O-])c(OC2CCCCC2O)c([N+](=O)[O-])c1` (configuration not stated): inactive: 1.72%.
Next, `CN(C)c1cccc(C(=O)NCC2(N3CCCCC3)CCCCC2)c1`: inactive: -3.63%.
As for `COc1cc(OC)c(C(=O)NCC2(N(C)C)CCCCC2)cc1OC`, the figure is inactive: -9%; as for `O=C(NCC1(N2CCOCC2)CCCCC1)c1cc(F)c(F)cc1Cl`, inactive: 17.8%.
In the case of `CN1CCC(Nc2cccc(F)c2)CC1`, the activity change, negative = inhibition is inactive: 11.2%.
Next, `COc1ccc2c(c1O)-c1c(O)c(OC)cc3c1[C@H](C2)[N+](C)(C)CC3.O=[N+]([O-])c1cc([N+](=O)[O-])c([O-])c([N+](=O)[O-])c1[O-]`: inactive: -17.5%; `O=C(NCC1(N2CCCCC2)CCCCC1)c1cncc(Br)c1`: inactive: -8.34%.
Regarding `CCCCOc1ccccc1C(=O)NCC1(N2CCOCC2)CCCCC1`, the activity change, negative = inhibition is inactive: -10.6%.
Next, `CCCOc1ccc(C(=O)NCC2(N(C)C)CCCCC2)cc1OC`: inactive: 3.01%.
As for `O=C(NCC1(N2CCCCC2)CCCCC1)c1ccc(OC(F)F)cc1`, the figure is inactive: 6.38%.
As for `CSc1ccc(C(=O)NCC2(N3CCOCC3)CCCCC2)cc1`, the figure is inactive: -1.95%; as for `O=C(NCC1(N2CCCCC2)CCCCC1)c1cccc([N+](=O)[O-])c1`, inactive: -13.3%.
`CCOc1ccc(C(=O)NCC2(N3CCOCC3)CCCCC2)cc1`: the activity change, negative = inhibition was inactive: 20.4%.
`CCN1CCC(Nc2ccc(Cl)cc2)CC1`: the activity change, negative = inhibition was inactive: -7.57%.
Regarding `N#CC1(Nc2ccccc2)CCN(CCc2ccccc2)CC1`, the activity change, negative = inhibition was inactive: 1.33%.
As for `CCCOc1cccc(C(=O)NCC2(N3CCOCC3)CCCCC2)c1`, the figure is inactive: -15.7%.
As for `O=C(NCC1(N2CCCCC2)CCCCC1)c1cccc(C(F)(F)F)c1`, the figure is inactive: -1.79%; as for `O=[N+]([O-])c1cc([N+](=O)[O-])c(NCC2CCS(=O)(=O)C2)c([N+](=O)[O-])c1` (configuration not stated), inactive: 4.44%.
Next, `CN1CCN(CCOC(=O)C(O)(c2ccccc2)c2ccccc2)CC1`: inactive: 0.716%; `CC(C)c1ccc(C(=O)NCC2(N3CCOCC3)CCCCC2)cc1`: inactive: 5.65%.
As to `COc1ccc(NC2CCN(C(=O)OC(C)(C)C)CC2)cc1`, the activity change, negative = inhibition was inactive: -5.53%.
As for `COc1cc(C(=O)NCC2(N3CCCCC3)CCCCC2)ccc1OC(F)F`, the activity change, negative = inhibition was inactive: 1.32%.
Regarding `O=C(NCC1(N2CCOCC2)CCCCC1)c1cc(=O)[nH]c2ccccc12`, the activity change, negative = inhibition was inactive: -6.24%.
